Experimental data published in paper PMC5222732 (Journal of medicinal chemistry, 2016).

Amino acid sequences for entries named in this document (tags omitted). A change or cut given only in a name is not applied to a line headed by its entry.
UniProt P33535, whole entry: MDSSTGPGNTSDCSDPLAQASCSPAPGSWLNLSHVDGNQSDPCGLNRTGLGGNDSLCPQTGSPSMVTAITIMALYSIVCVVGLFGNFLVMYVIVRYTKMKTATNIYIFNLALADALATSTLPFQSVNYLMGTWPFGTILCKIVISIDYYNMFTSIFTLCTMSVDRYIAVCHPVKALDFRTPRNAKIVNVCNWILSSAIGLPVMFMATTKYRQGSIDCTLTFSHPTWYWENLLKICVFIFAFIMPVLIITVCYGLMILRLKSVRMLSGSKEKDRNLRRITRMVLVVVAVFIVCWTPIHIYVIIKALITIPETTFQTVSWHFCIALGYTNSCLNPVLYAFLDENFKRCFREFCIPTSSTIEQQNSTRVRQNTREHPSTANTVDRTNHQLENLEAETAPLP
UniProt P41144: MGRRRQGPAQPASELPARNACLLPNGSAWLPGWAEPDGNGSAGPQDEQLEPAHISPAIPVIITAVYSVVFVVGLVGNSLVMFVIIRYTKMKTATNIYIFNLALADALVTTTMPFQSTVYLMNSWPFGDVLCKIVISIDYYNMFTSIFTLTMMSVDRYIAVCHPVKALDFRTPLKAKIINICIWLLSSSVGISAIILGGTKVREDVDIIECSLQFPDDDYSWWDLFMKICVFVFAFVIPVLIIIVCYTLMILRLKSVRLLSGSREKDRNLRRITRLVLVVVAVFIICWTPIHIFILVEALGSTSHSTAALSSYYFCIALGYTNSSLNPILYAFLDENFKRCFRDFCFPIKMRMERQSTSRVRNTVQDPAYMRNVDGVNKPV

Assays:
μ opioid receptor (MOR) = μ opioid receptor (MOR) (Rattus norvegicus, UniProt P33535); assay: biochemical; assay type: binding
κ opioid receptor (KOR) [1] = biological target: T1, κ opioid receptor (KOR) (Cavia porcellus, UniProt P41144); assay type: binding, guinea pig
κ opioid receptor (KOR) [2] = biological target: T1, κ opioid receptor (KOR); assay: GPI functional assay, κ antagonist Ke; assay type: cell-based, guinea pig

Question: With `CCCC[C@@H]1NC(=O)[C@H](Cc2ccccc2)NC(=O)[C@@H](CCCNC(=N)N)NC(=O)[C@H](Cc2c(C)cc(O)cc2C)NC1=O` [compound 4, c[-D-Arg-Phe-Nle-Dmt-]] as the molecule, how does the Ki (μ opioid receptor (MOR)) read?
Answer: 1.54 ± 0.18 nM

Question: What about the Ki (κ opioid receptor (KOR) [1]) of the same molecule?
Answer: 22.7 ± 5.3 nM

Question: What about the Kb (κ opioid receptor (KOR) [2]) of the same molecule?
Answer: 49.7 ± 3.9 nM
